Yeast mating assay 2: variants of the scFv Ab-95

Reference: Engelhart et al. 2022, doi:10.1038/s41597-022-01779-4. File: FLAb, binding data.

The target is the same throughout: PDVDLGDISGINAS, from the HR2 region of SARS-CoV-2 spike.

The variants keep the heavy chain, the linker and the frameworks of Ab-95 (scFv order VH, three GGGGS repeats, VL).
VH: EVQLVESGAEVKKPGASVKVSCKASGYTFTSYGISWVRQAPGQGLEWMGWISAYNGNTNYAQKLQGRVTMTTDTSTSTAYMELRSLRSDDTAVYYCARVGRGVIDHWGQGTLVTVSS
VL: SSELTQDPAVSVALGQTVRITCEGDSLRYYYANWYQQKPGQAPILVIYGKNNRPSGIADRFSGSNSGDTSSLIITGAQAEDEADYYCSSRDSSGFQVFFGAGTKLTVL

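Library AAYL52 holds single substitutions and randomly drawn double and triple substitutions in the CDRs. AlphaSeq pools MATa yeast showing the antibodies with MATalpha yeast showing the peptide. The frequency of each diploid, read from paired DNA barcodes, reflects how well the two displayed proteins bind. The ratio of observed to expected reads was calibrated, replicate by replicate, on BCL2-family standards whose Kd was known from biolayer interferometry. The assay was run in three technical replicates.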

Variants are written as CDR1, CDR2 and CDR3 of the light chain (limits as in the source). Parent: EGDSLRYYYAN, GKNNRPS, SSRDSSGFQVF. Kd is apparent (estimated from mating counts) and averaged on the log scale over replicates with a signal. Smaller is tighter. A pair that was not seen in any replicate is written "nd"; this usually means weak binding, but a binder can also be missed. Background: pairings of library AAYL52 with three empty control strains gave a value in 28% of cases (median 8.2 µM, 5th percentile 800 nM). Values in that range, when seen in few replicates, are hard to tell from nonspecific mating. The control count says in how many pairings with the empty strains this scFv gave a signal.

CDR-L1	CDR-L2	CDR-L3	apparent Kd	detected	control signals
EGDSLRYYYAK	GKNNRPS	SSRDSSEFQVL	nd	0 of 3	1 of 9
EGDSLRYYYQN	GKNNRQS	SSRDSSGFQVF	7.3 µM	1 of 3	0 of 9
EGDSLRYHYAN	GKPNRPV	SSRDSSGFQVF	6.9 µM	3 of 3	2 of 9
EGDSLRYYYAN	IKNNRPS	ISRDSTGFQVF	65 µM	1 of 3	1 of 9
EGDSLRYNYAN	GKNCRPS	SSDDSSGFQVF	19 nM	3 of 3	2 of 9
EGDSLRYYYAN	GKVNRPS	SSRISSGFQVN	260 µM	1 of 3	2 of 9
EGDSIRYYYAN	GKNNRPS	PSRDSSGFCVF	79 µM	2 of 3	1 of 9
EGDSLRYYYAN	GKNNQPS	NSRDSSGFTVF	nd	0 of 3	1 of 9
EGDSLRYYYAN	GKNNRPS	SSRDSTGFKVG	290 nM	3 of 3	1 of 9
EGDFLRYYYFN	GKNNRPS	SSRASSGFQVF	5.2 µM	2 of 3	3 of 9
EGDSLLYYYAN	GKNNRPS	SSRDSYGKQVF	1.9 µM	3 of 3	3 of 9
EGDSLRAEYAN	GKNNRPS	SSRVSSGFQVF	3.8 µM	2 of 3	1 of 9
EWSSLRYYYAN	GKNNRPS	SSRDSSSFQVF	1.2 µM	2 of 3	1 of 9
EGDSLWYYYAN	GVNNRPS	SSRDSSGFQVS	5.6 µM	2 of 3	4 of 9
EGDSLRYYYAN	GKNNRMS	SSFDSSQFQVF	1.1 µM	3 of 3	3 of 9
EGDSLRYYYAN	GKNNRPS	RARDSSGFQVF	17 µM	1 of 3	1 of 9
EGDSLRYLTAN	GKNNRPS	STRDSSGFQVF	1.6 µM	3 of 3	5 of 9
CGTSLRYYYAN	GKNNRPS	SSRDSAGFQVF	1.4 µM	3 of 3	1 of 9
QGDSLRYYYAN	GKNNRPS	SSRDSSGWQVF	60 nM	3 of 3	3 of 9
EGDRLRYYYAN	GKNNDPS	SSRDSSGFQVF	13 µM	1 of 3	3 of 9
EGDSLRYYYAN	GKNNCPS	SSTDSQGFQVF	nd	0 of 3	0 of 9
EIDSLRYYYAA	GKNNRPS	SSMDSSGFQVF	14 µM	3 of 3	3 of 9
EGDSLVYYDAN	GKNNRPS	SSRDMSGFQVF	49 nM	3 of 3	4 of 9
EGDSLRMYMAN	GKNWRPS	SSRDSSGFQVF	2.8 µM	3 of 3	5 of 9
EGDSLVYYYAA	GKNNRPN	SSRDSSGFQVF	1.6 µM	3 of 3	3 of 9
EGDSLRYYYAN	PKNNRPD	SSRDSSGFQVL	25 µM	1 of 3	2 of 9
EGNSLRYYYAN	GKNNRPS	SSRDSSGCCVF	50 nM	3 of 3	4 of 9
EGVSLRYFYAN	GKNNRPS	SSRDSSGFQVE	3.2 µM	3 of 3	1 of 9
EGDSLRYYYAN	GKNNRPF	SSRQSSKFQVF	8.5 µM	2 of 3	0 of 9

Continued, with the values leading:

apparent Kd	detected	control signals	CDR-L1	CDR-L2	CDR-L3
14 µM	2 of 3	1 of 9	EEDSLRVYYAN	GKNNRPS	SSRASSGFQVF
19 µM	1 of 3	2 of 9	EGDSLRYYYAN	GKNNRPS	SMRDSSGFQVL
410 nM	3 of 3	2 of 9	EGHSWRYYYAN	GKNNRPS	SSRDSSGFQVV
2.6 µM	1 of 3	3 of 9	EGDSWRYYYHN	GKGNRPS	SSRDSSGFQVF
160 µM	1 of 3	1 of 9	EGDSLRYYYAK	GKNMRPS	SSRDSYGFQVF
nd	0 of 3	2 of 9	EGDSLRYYYAN	GKNNRPS	SSRDLSSLQVF
nd	0 of 3	1 of 9	EGDSLRYYYAN	GKNNRPN	SSRQSSGFQSF
27 nM	3 of 3	1 of 9	EGDSLRYIYAN	GKNNRPE	SSRDSSGFHVF
12 µM	2 of 3	2 of 9	EFDSLRYYYAN	GKNNPPS	SSRDISGFQVF
320 nM	3 of 3	4 of 9	EGDSLRSYYAN	GKNNRPS	QSRDSDGFQVF
1.8 µM	1 of 3	2 of 9	EGDELRYMYAE	GKNNRPS	SSRDSSGFQVF
4.3 µM	3 of 3	6 of 9	EGDSLRFYRAN	SKNNRPS	SSRDSSGFQVF
14 µM	2 of 3	3 of 9	ETDSLRYYYDN	GKNNRPS	SSRDSSGFAVF
67 nM	3 of 3	3 of 9	EGDSLRYYEAN	GKNNRPS	SSRISTGFQVF
nd	0 of 3	1 of 9	EGDSLRYIYAN	GCNNRPS	SSRDISGFQVF
330 µM	1 of 3	2 of 9	EGDSLRYYYAN	GKNNGPS	ISRDSSGFQVF
120 nM	3 of 3	0 of 9	EGDTLRYYYAN	GKNNRPS	STRDSSGYQVF
10 µM	1 of 3	1 of 9	EGDSLRYYNAN	GKNGRPS	SSRDSSEFQVF
1.6 µM	1 of 3	2 of 9	ECASLRYYYAN	WKNNRPS	SSRDSSGFQVF
6.3 µM	2 of 3	3 of 9	EGDSLRYYYAE	GKNNRPS	SSRDQSGFHVF
270 nM	3 of 3	4 of 9	EGDSLRQTYAN	GKVNRPS	SSRDSSGFQVF
8.7 µM	3 of 3	4 of 9	EMDSLRYYYAN	GKNNRPS	WSRVSSGFQVF
200 nM	3 of 3	5 of 9	EGDSLRYYYAN	GKNNRPS	SSRDSSGFSVH
970 nM	3 of 3	5 of 9	EGDSLQYYYAN	GQNNRPS	SSEDSSGFQVF
76 µM	1 of 3	2 of 9	EGDSLRYYYAN	KKNNRMS	SSRDSSGFIVF
2.2 µM	2 of 3	3 of 9	WGDSLRYYYAN	GKNNRPS	SSRDSSGFWVF
1.6 µM	2 of 3	5 of 9	EGDSMRSYYAN	GKNNRPS	SSRDSGGFQVF
13 µM	3 of 3	5 of 9	NGDSLRYYYAN	GKHNRPS	SSRDSSPFQVF
1.0 µM	3 of 3	5 of 9	EGDSLRYYLAN	GKNNRPS	VWRDSSGFQVF

Repeated from above, the 5 best binders with a signal in all replicates:

CDR-L1	CDR-L2	CDR-L3	apparent Kd	detected	control signals
EGDSLRYNYAN	GKNCRPS	SSDDSSGFQVF	19 nM	3 of 3	2 of 9
EGDSLRYIYAN	GKNNRPE	SSRDSSGFHVF	27 nM	3 of 3	1 of 9
EGDSLVYYDAN	GKNNRPS	SSRDMSGFQVF	49 nM	3 of 3	4 of 9
EGNSLRYYYAN	GKNNRPS	SSRDSSGCCVF	50 nM	3 of 3	4 of 9
QGDSLRYYYAN	GKNNRPS	SSRDSSGWQVF	60 nM	3 of 3	3 of 9

In this assay the parent's reference entry averaged 200 nM; its copy inside this library read 180 nM.